Experiment [1] has as its system human neutrophils. The experiment is described as follows: FcγRIIA-induced human neutrophil reactive oxygen species generation. In kind it is cell-based. Particulars: read-out: IC50, immune complex-induced ROS production.
The test system of experiment [2] is B cells in human whole blood. The experiment is described as follows: Anti-IgD-induced B-cell activation. In kind it is cell-based. As to conditions: whole blood CD69 IC50 versus whole blood pBTK IC50.
Experiment [3] has as its target recombinant human BTK protein (Homo sapiens, UniProt Q06187). In words: biochemical.

Chains of the proteins cited; added tags and fusions are not shown. Lines headed by an entry give the natural chain unless they say otherwise; changes in a name come on top.
UniProt Q06187: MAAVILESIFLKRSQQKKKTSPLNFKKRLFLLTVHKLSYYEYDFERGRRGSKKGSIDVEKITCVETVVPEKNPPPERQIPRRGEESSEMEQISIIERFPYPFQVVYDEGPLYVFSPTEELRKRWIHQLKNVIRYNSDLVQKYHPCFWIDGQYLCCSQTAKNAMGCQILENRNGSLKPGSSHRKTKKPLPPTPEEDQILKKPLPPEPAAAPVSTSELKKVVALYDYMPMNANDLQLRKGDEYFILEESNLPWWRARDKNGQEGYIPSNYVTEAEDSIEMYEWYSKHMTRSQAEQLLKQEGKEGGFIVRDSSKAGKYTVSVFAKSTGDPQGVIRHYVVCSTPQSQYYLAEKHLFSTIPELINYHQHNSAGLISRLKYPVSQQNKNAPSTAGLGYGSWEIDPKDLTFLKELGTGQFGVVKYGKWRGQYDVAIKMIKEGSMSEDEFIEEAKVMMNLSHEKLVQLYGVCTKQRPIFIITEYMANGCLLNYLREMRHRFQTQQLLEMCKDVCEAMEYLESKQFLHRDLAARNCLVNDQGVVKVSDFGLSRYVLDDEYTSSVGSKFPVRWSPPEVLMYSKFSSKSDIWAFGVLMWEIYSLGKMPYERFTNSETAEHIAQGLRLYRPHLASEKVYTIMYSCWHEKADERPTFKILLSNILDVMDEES

We go through 1 molecule from paper PMC8204096 (Clinical & Translational Immunology, 2021).

Broadly, the IC50 is the midpoint of a concentration-inhibition curve. On to `Cn1cc(Nc2nccc(-c3ccc4c(c3)CN(C3COC3)CC[C@H]4NC(=O)c3cn(C(C)(C)C)nn3)n2)cn1` [BIIB091], for which the results for the IC50 in experiment [1] and in experiment [3] were 4.5 ± 4.9 nM and 0.45 nM, respectively. The “shift between proximal (pBTK) and distal (CD69) whole blood IC50s” value in experiment [2] is 5 fold.
